For this assay, the target named is Somatostatin receptor type 3 (Homo sapiens, UniProt P32745). In words: Agonist activity at human SST3 expressed in CHO-K1 cells assessed as activation of […]-stimulated cAMP accumulation at 2 uM after 45 mins by TR-FRET assay. The format is functional, cell-based. For orientation: Cyclic AMP is a second messenger, typically raised through Gs and lowered through Gi signalling.

Amino acid sequences for entries named in this document (tags omitted).
UniProt P32745, whole entry: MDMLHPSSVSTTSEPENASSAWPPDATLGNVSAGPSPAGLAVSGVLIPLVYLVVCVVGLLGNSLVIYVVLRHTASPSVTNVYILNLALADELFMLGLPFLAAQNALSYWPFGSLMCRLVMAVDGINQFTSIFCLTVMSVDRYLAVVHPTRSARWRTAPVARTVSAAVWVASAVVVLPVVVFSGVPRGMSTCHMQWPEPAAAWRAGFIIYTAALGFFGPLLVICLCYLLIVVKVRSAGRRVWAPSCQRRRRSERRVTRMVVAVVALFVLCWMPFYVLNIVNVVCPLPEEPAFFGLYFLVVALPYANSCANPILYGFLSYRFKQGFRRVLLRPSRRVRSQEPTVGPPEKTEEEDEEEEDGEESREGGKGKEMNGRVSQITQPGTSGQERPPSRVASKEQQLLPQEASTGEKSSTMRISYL

With `CC(C)(C)CCN[C@H]1CCCC[C@H]1NC(=O)c1ccc(F)cc1`, the Activity was determined as 98%.
